Measurements as given in article PMC4140284, “Human UTY(KDM6C) Is a Male-specific N^ϵ-Methyl Lysyl Demethylase” (The Journal of Biological Chemistry, 2014).

System: UTY(KDM6C)
Conditions: absence of prime substrate, 1H NMR
From the text: The total echo time was 48 ms.

O=C(O)CCC(=O)C(=O)O [2OG, 2-oxoglutarate]
rate of uncoupled 2OG turnover: comparable with that observed for both recombinant KDM6A and KDM6B
